The text below walks through data of PubChem BioAssay AID720628 (The Scripps Research Institute Molecular Screening Center, 2013).

The chains behind the UniProt entries cited, without tags or fusion partners. Where a name states a change or a piece, a line headed by the entry shows the natural chain unless it says otherwise.
UniProt P02675: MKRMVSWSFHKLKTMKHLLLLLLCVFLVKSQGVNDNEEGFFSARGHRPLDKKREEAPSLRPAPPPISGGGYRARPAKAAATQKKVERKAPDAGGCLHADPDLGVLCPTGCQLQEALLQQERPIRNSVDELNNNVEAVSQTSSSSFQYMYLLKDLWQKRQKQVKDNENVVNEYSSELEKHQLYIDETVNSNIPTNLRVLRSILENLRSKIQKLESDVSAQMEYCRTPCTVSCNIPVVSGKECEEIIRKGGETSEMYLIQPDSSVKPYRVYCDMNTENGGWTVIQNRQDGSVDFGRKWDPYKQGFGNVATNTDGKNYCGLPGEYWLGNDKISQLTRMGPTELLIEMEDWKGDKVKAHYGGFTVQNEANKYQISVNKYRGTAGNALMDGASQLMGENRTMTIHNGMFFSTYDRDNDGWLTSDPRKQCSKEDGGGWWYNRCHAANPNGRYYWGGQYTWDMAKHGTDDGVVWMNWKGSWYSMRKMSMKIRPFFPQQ

The target in the assay is Fibrinogen beta chain (Homo sapiens) (UniProt P02675). The assay is described as follows: Tn7 displacement from DD(E) complex – biochemical, fluorescence polarization, human fibrin, Tn7 probe, confirmation (AID 720628).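 Also: 100% = median FP of high control wells holding Aha-Tn7 inhibitor peptide; displacers lower polarization since freed probe rises.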 As to conditions: FP displacement of TRITC-Tn7 peptide from DD(E); at 8.3 µM; active compounds read high; 0% set at plate's compound-well median. (Fluorescence polarisation rises when a labelled molecule tumbles more slowly, as on binding a larger partner.)

The structures appear in SMILES notation. This is a selection; strong and weak results do not stand in their true shares. Active and inactive are the calls of the source.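 The calls were made as follows: active = inhibition above the campaign cutoff, the mean of compounds within control limits plus 3 SD (cut at about 14% in these data); inactive = the rest.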

Turning to `Nc1cccc2c([As](=O)(O)O)cccc12`, the inhibition was inactive: 3.01%.

As a reminder, the inhibition is how much of the control response was suppressed.
